The values that follow come from patent US20130295185A1, “COMPOUNDS AND METHODS FOR INDUCING APOPTOSIS IN CANCER CELLS USING A BH3 ALPHA-HELICAL MIMETIC” (H. Lee Moffitt Cancer Center and Research Institute, Inc., priority 2011, published 2013).

Sequences of proteins named here, by UniProt entry; tags and fusion partners are left off.
UniProt Q07820, whole entry: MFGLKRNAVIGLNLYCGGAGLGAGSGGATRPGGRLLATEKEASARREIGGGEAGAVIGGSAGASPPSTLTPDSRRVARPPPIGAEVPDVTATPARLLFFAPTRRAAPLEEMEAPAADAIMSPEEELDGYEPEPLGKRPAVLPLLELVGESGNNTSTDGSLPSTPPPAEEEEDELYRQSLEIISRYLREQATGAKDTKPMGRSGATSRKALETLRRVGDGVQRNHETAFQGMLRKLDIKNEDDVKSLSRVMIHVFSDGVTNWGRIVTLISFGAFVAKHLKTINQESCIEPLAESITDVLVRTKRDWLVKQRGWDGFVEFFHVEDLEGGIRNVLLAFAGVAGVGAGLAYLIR

Data set [1] concerns the target endogenous Bak with endogenous Mcl-1 (Homo sapiens, UniProt Q07820). The data set is described as follows: Co-immunoprecipitation from H1299 cells. The following applies: H1299, 0-100 μM BH3-M6 or 100 μM TPC, 24 h; tested form: diammonium salt (as drawn, CO2NH4). The protocol:
FIG. 4 is a series of images illustrating BH3-M6 inhibits the interaction between Bcl-XL, Bcl-2, and Mcl-1 with Bim, Bak or Bax in intact cells. (A) Co-immunoprecipitation from HEK293T cells. HEK293T cells were co-transfected with HA-Bcl-XL and Flag-BimEL for 18 h. Cells were exposed to 0, 25, 50, and 100 μM of BH3-M6 or 100 μM of TPC for 2 h at 37° C., lysed and subjected to immunoprecipitation with anti-FLAG-M2 beads. The resulting immune complexes, as well as total lysates, were analyzed by Western blotting with the indicated antibodies. (B) Co-immunoprecipitation from MDA-MB-468 cells expressing Bcl-XL-IRES-BimEL, Bcl-2-IRES-BimEL, and Mcl-1-IRES-BimEL. […] The resulting immune complexes were analyzed by Western blotting with Bim, Bcl-XL, Bcl-2, and Mcl-1 antibodies. […] The resulting immune complexes were analyzed by Western blotting with the indicated antibodies. […] The resulting immune complexes were analyzed by Western blotting with the antibodies indicated on the right. […]
Next the inventors determined whether BH3-M6 could disrupt these interactions of the corresponding endogenous proteins. […] Finally, a mechanism by which freed Bax is believed to induce apoptosis is through a conformational change, which can be detected by a specific antibody. […]

Data set [2] deals with A549 cells. Nature of the data set: BH3-M6 and CEP-1612 alone or in combination in A549 cells (MTT, TUNEL, PARP cleavage). The following applies: tested form: diammonium salt (as drawn, CO2NH4). The protocol:
FIG. 7 is a series of images illustrating BH3-M6 sensitizes A549 cells to the proteasome inhibitor CEP-1612 to induce apoptosis. A549 cells were treated with the indicated concentrations of either drug alone or in combination and then processed for various assays as described in EXPERIMENTAL PROCEDURES. (A) Cell viability as measured by MTT assay after 72 h of treatment, error bars indicate standard deviations of triplicates. (B) apoptosis as determined by TUNEL assay after 48 h of treatment. (C) PARP cleavage after 24 hours of drug treatment.
Release of cytochrome c from isolated mitochondria was measured as described by Takahashi et al. (Takahashi, Y., Karbowski, M., Yamaguchi, H., Kazi, A., Wu, J., Sebti, S. M., Youle, R. J., and Wang, H. G. (2005) Mol Cell Biol 25, 9369-9382) Cell-free caspase-3/-7 activity and the extent of PARP cleavage was determined as described previously. (Kazi, A., Smith, D. M., Zhong, Q., and Dou, Q. P. (2002) Mol Pharmacol 62, 765-771) MTT (3-(4,5-dimethylthiazol-2-yl)-2,5-diphenyltetrazolium bromide) and TUNEL assays were performed according to Kazi et al., both of which are incorporated herein by reference. (Kazi, A., Lawrence, H., Guida, W. C., McLaughlin, M. L., Springett, G. M., Berndt, N., Yip, R. M. L., and Sebti, S. M. (2009) Cell Cycle 8, 1940-1951)
To determine whether BH3-M6 sensitizes cells to apoptosis induced by other stimuli, the inventors treated A549 cells with BH3-M6 and CEP-1612 (Sun, J., Nam, S., Lee, C. S., Li, B., Coppola, D., Hamilton, A. D., Dou, Q. P., and Sebti, S. M. (2001) Cancer Res 61, 1280-1284), either alone or in combination. BH3-M6 and CEP-1612 alone had little effect on cell viability (about 20% and about 28%, respectively) (FIG. 7A) and apoptosis (about 5% and about 8%, respectively) (FIG. 7B). […] The results from FIG. 7C were obtained after about 24 hours of drug treatment, whereas those from FIG. 5C were obtained after about 48 hours of drug treatment.

Turning to `CC(C)Cc1cc(-c2ccc(-c3ccc(CCC(=O)O)cc3CC(C)C)cc2Cc2ccccc2)ccc1OCC(=O)O`, the “inhibition of interaction of endogenous Bak with endogenous Mcl-1” value in data set [1] is “dose-dependent inhibition”. For the same molecule, the “inhibition of cell viability” value in data set [2] (A549, MTT, 72 h) was “about 20%”. In data set [2] (A549, TUNEL, 48 h), the induction of apoptosis entry was “about 5%”. Moreover, the PARP cleavage entry in data set [2] (A549, immunoblot, about 24 hours) was “but not either drug alone”.
